The source of these data is PubChem BioAssay AID588692 (Broad Institute, 2011).

Only a part is listed here, and it is no random draw. Active and inactive are the calls of the source.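 How the source made its calls: active means mean luciferase reporter signal, scaled so untreated is 0 and the glycosylation-blocking control 100, at or above a set limit in every replicate; inconclusive means mean reaches the limit but not every replicate does; inactive means mean below the limit.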

A short description of this assay: D54 reporter luminescence gain compounds – D54 ERlucT cells, set 2, N-linked glycosylation inhibitor project, primary screen (AID 588692).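 Further: luciferase carries N-glycosylation sites so blocking glycosylation raises the light; 0% = median of neutral control wells and 100% = median of 100 nM tunicamycin wells.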 Conditions: D54 ERlucT glycosylation luciferase reporter, 24 h; at 12.5 µM; stronger effect = higher value; percent of 100 nM tunicamycin response. A general note: A reporter such as luciferase makes a cellular process visible.
For `CCCC1OP(=O)(Nc2ccccc2)OCC1CC` (stereo unspecified), the reporter increase is inactive: 0.301%.

Take `O=C(/C=C/c1ccccc1)OC1CN2CCC1CC2` (stereo unspecified): the reporter increase was inactive: -4.54%.

On to `CN(C)C1(CNC(=O)c2ccc(S(C)(=O)=O)cc2)CCCCC1`, for which the reporter increase was inactive: 0.299%.

`CC1CCC(C(C)C)C(OP(=O)(Nc2ccccn2)c2ccccc2)C1` (stereo unspecified): the reporter increase was inactive: -7.32%.

Regarding `Cc1ccc(C(=O)OC2CN3CCC2CC3)cc1` (stereo unspecified), the reporter increase is inactive: -0.968%.

Consider `Cc1nn(-c2ccccc2)c2c1P(=O)(N1CCOCC1)N(C)C(c1ccccc1)=N2` (stereo unspecified), for which the reporter increase is inactive: 0.367%.

On to `O=[N+]([O-])c1ccc(Nc2ccc(Oc3ccc([N+](=O)[O-])cc3[N+](=O)[O-])cc2)c([N+](=O)[O-])c1`, for which the reporter increase is inactive: 9.56%.

Take `O=P(Nc1ccccn1)(c1cccc2ccccc12)c1cccc2ccccc12`: the reporter increase was inactive: -1%.

In the case of `Cc1cc(SC(NC=O)C(Cl)(Cl)Cl)ncn1` (stereo unspecified), the reporter increase was inactive: 2.1%.

For `CCOC(=O)Nc1cccc([As](=O)(O)O)c1`, the reporter increase was inactive: 0.589%.

`Cc1cc(SC(NC(=O)c2ccccc2)C(Cl)(Cl)Cl)nc(C(C)C)n1` (stereo unspecified): the reporter increase was inactive: -0.755%.

With `CCCCOc1ccc(C(=O)NCC2(N3CCCCC3)CCCCC2)cc1OC`, the reporter increase is inactive: -4.03%.

Consider `COP(=O)(OC)N1CC1c1ccccc1` (stereo unspecified), for which the reporter increase was inactive: -0.198%.

With `CC1CCNP(=O)(N(CCCl)CCCl)O1` (stereo unspecified), the reporter increase was inactive: 0.086%.

With `CCOC(=O)Nc1ccc([As](=O)(O)O)c(O)c1`, the reporter increase is inactive: 0.698%.

Consider `O=C(O)C(O)c1ccc(N(CCCl)CCCl)cc1` (stereo unspecified), for which the reporter increase was inactive: 0.97%.

As to `CCOC(=O)c1ccc(NC(=O)C(C)(CCl)SC)cc1` (stereo unspecified), the reporter increase is inactive: 3.22%.

In the case of `CSc1ccc(Nc2c([N+](=O)[O-])cc([N+](=O)[O-])cc2[N+](=O)[O-])cc1`, the reporter increase is inactive: 1.72%.

With `O=C(OC1CN2CCC1CC2)c1cccc([N+](=O)[O-])c1` (stereo unspecified), the reporter increase is inactive: -4.07%.

With `O=C(Nc1ccncc1[N+](=O)[O-])c1ccc([N+](=O)[O-])cc1[N+](=O)[O-]`, the reporter increase was inactive: -7.86%.

As for `O=C(COc1ccccc1)OC1CN2CCC1CC2` (stereo unspecified), the reporter increase was inactive: 0.155%.

With `O=C(O)C(=O)c1ccc(N(CCCl)CCCl)cc1`, the reporter increase is inactive: -0.264%.

With `COC(=O)C1(C)COP(=O)(N2CCCC2)OC1` (stereo unspecified), the reporter increase is inactive: 0.848%.

As for `COP1(=S)c2c(C)nn(CCC#N)c2N=C(c2ccc(F)cc2)N1C` (stereo unspecified), the reporter increase is inactive: 2.64%.

With `COc1ccc(N/C(=N/P(=O)(N2CCOCC2)N2CCOCC2)N2CCOCC2)cc1`, the reporter increase is inactive: 1.42%.

`O=[N+]([O-])c1cc(Oc2ccc([N+](=O)[O-])cc2C(F)(F)F)cc([N+](=O)[O-])c1`: the reporter increase was inactive: -1.73%.
